Assay results from PubChem BioAssay AID701 (PCMD, 2007).
The entries are a selection whose mix differs from that of the whole data set. Activity calls are given as the source filed them. Cut-off read from the data, not from the text of the source: active = inhibition above about 30%; inactive = the rest.

Protein sequences, listed by entry. Tags and fused reporters are not part of them. Lines headed by an entry give the natural chain unless they say otherwise; changes in a name come on top.
UniProt P00748: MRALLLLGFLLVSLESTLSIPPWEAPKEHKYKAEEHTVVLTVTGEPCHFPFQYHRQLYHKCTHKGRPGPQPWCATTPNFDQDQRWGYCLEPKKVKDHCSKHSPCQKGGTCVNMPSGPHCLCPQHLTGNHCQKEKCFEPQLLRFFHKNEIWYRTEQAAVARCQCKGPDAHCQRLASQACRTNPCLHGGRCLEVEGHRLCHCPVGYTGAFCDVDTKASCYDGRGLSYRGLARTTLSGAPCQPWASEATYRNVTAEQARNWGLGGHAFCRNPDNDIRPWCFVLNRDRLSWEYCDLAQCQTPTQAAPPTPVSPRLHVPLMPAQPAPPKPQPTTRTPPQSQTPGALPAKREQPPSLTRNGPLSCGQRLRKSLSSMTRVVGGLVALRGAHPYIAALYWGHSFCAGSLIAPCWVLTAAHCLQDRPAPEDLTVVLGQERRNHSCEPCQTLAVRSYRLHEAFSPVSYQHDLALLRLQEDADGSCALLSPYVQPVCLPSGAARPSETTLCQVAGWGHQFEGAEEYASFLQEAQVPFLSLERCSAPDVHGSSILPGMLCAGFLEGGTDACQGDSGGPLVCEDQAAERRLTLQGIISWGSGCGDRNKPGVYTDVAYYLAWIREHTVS

biological target: Coagulation factor XII (Homo sapiens) (UniProt P00748); assay: human FXIIa protease inhibitors, primary screen, biochemical, single well (AID 701); conditions: purified human FXIIa, AMC substrate fluorescence, 2 h; at 10 µM; hits give high values;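 note: 0% = enzyme with vehicle only and 100% = no enzyme blank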

Row | SMILES | inhibition
1 | CCC(C)N(CC(C)C)C(=S)SC(NC(C)=O)C(Cl)(Cl)Cl (stereo not drawn) | inactive: -0.83%
2 | CC1(CBr)Cn2c(nc3ccccc3c2=O)S1 (stereo not drawn) | inactive: -14.3%
3 | Cc1cccc(OCC(=O)OC2CN3CCC2CC3)c1 (stereo not drawn) | inactive: 2.66%
4 | COC(=O)c1cc2c(s1)N=C(c1ccccc1)N(C)P2(=O)N1CCOCC1 (stereo not drawn) | inactive: 7.73%
5 | O=[N+]([O-])c1cccc2n[nH]nc12 | inactive: -9.12%
6 | CC1CCN(C(=O)Oc2c(Cl)cc(Cl)c3cccnc23)CC1 | inactive: -18.1%
7 | CCOP(=O)(Nc1ccccc1)OCC | inactive: 1.28%
8 | Oc1ccccc1CNc1ccccn1 | inactive: 10.2%
